Measured values: paper PMC11345844, “Non-Covalent Inhibitors of SARS-CoV-2 Papain-Like Protease (PLpro): In Vitro and In Vivo Antiviral Activity” (Journal of Medicinal Chemistry, 2024)

Target: SARS-CoV-2 PLpro (Severe acute respiratory syndrome coronavirus 2, UniProt P0DTD1)
Details: read-out: Enzyme inhibition IC50

Structure (SMILES)	IC50 [µM]
Cc1ccc(NC2CNC2)cc1C(=O)N[C@H](C)c1cccc(-c2cc(C)c(CN3CCCC3)s2)c1 [Compound 15, (R)-5-(Azetidin-3-ylamino)-2-methyl-N-(1-(3-(4-methyl-5-(pyrrolidin-1-ylmethyl)thiophen-2-yl)phenyl)ethyl)benzamide]	0.92
Cc1ccc(NC2CNC2)cc1C(=O)N[C@H](C)c1cccc(-c2cc(C)c(CN[C@H]3CC[C@@H](O)C3)s2)c1 [Compound 17, 5-(Azetidin-3-ylamino)-N-((R)-1-(3-(5-((((1S,3R)-3-hydroxycyclopentyl)amino)methyl)-4-methylthiophen-2-yl)phenyl)ethyl)-2-methylbenzamide]	0.33
Cc1ccc(NC2CNC2)cc1C(=O)N[C@H](C)c1cccc(-c2sc(CN[C@H]3CC[C@@H](O)C3)cc2C)c1 [Compound 18, 5-(Azetidin-3-ylamino)-N-((R)-1-(3-(5-((((1S,3R)-3-hydroxycyclopentyl)amino)methyl)-3-methylthiophen-2-yl)phenyl)ethyl)-2-methylbenzamide]	1.48
Cc1ccc(NC2CNC2)cc1C(=O)N[C@H](C)c1cccc(-c2sc(CNC3CCCC3)cc2C)c1 [Compound 19, (R)-5-(Azetidin-3-ylamino)-N-(1-(3-(5-((cyclopentylamino)methyl)-3-methylthiophen-2-yl)phenyl)ethyl)-2-methylbenzamide]	1.96
Cc1ccc(NC2CNC2)cc1C(=O)N[C@H](C)c1cccc(-c2sc(CN3CCCC3)cc2C)c1 [Compound 20, (R)-5-(Azetidin-3-ylamino)-2-methyl-N-(1-(3-(3-methyl-5-(pyrrolidin-1-ylmethyl)thiophen-2-yl)phenyl)ethyl)benzamide]	3.17
Cc1ccc(NC2CNC2)cc1C(=O)N[C@H](C)c1cccc(-c2cc3ccccc3s2)c1 [Compound 22, (R)-5-(Azetidin-3-ylamino)-N-(1-(3-(benzo[b]thiophen-2-yl)phenyl)ethyl)-2-methylbenzamide]	1.13
Cc1csc(-c2cccc([C@@H](C)NC(=O)c3cc(NC4CNC4)ccc3C)c2)c1 [Compound 24, (R)-5-(Azetidin-3-ylamino)-2-methyl-N-(1-(3-(4-methylthiophen-2-yl)phenyl)ethyl)benzamide]	1.93
Cc1ccc(NC2CNC2)cc1C(=O)N[C@H](C)c1cccc(-c2sccc2C)c1 [Compound 25, (R)-5-(Azetidin-3-ylamino)-2-methyl-N-(1-(3-(3-methylthiophen-2-yl)phenyl)ethyl)benzamide]	1.19
Cc1ccc(NC2CNC2)cc1C(=O)N[C@H](C)c1cccc(-c2ccc(-c3ccccc3)s2)c1 [Compound 26, (R)-5-(Azetidin-3-ylamino)-2-methyl-N-(1-(3-(5-phenylthiophen-2-yl)phenyl)ethyl)benzamide]	4.75
Cc1ccc(NC2CNC2)cc1C(=O)N[C@H](C)c1cccc(-c2ccc(-c3cccs3)s2)c1 [Compound 27, (R)-N-(1-(3-([2,2′-Bithiophen]-5-yl)phenyl)ethyl)-5-(azetidin-3-ylamino)-2-methylbenzamide]	4.43
Cc1ccc(NC2CNC2)cc1C(=O)N[C@H](C)c1cccc(-c2ccc(C(F)(F)F)s2)c1 [Compound 28, (R)-5-(Azetidin-3-ylamino)-2-methyl-N-(1-(3-(5-(trifluoromethyl)thiophen-2-yl)phenyl)ethyl)benzamide]	6.12
Cc1ccc(NC2CNC2)cc1C(=O)N[C@H](C)c1cccc(-c2ccc(Cl)s2)c1 [Compound 29, (R)-5-(Azetidin-3-ylamino)-N-(1-(3-(5-chlorothiophen-2-yl)phenyl)ethyl)-2-methylbenzamide]	1.08
Cc1ccc(NC2CNC2)cc1C(=O)N[C@H](C)c1cccc(-c2cc3sccc3s2)c1 [Compound 30, (R)-5-(Azetidin-3-ylamino)-2-methyl-N-(1-(3-(thieno[3,2-b]thiophen-2-yl)phenyl)ethyl)benzamide]	0.82
Cc1ccc(NC2CNC2)cc1C(=O)N[C@H](C)c1cccc(-c2ccc(CNC(=O)C3CC3)s2)c1 [Compound 31, (R)-5-(Azetidin-3-ylamino)-N-(1-(3-(5-(cyclopropanecarboxamidomethyl)thiophen-2-yl)phenyl)ethyl)-2-methylbenzamide]	0.79
Cc1ccc(NC2CNC2)cc1C(=O)N[C@H](C)c1cccc(-c2ccc(CNC(=O)C3CCCC3)s2)c1 [Compound 32, (R)-5-(Azetidin-3-ylamino)-N-(1-(3-(5-(cyclopentanecarboxamidomethyl)thiophen-2-yl)phenyl)ethyl)-2-methylbenzamide]	0.38
Cc1ccc(NC2CNC2)cc1C(=O)N[C@H](C)c1cccc(-c2ccc(CNC(=O)C3CCOCC3)s2)c1 [Compound 33, (R)-N-((5-(3-(1-(5-(Azetidin-3-ylamino)-2-methylbenzamido)ethyl)phenyl)thiophen-2-yl)methyl)tetrahydro-2H-pyran-4-carboxamide]	0.82

Structure (SMILES)	IC50 [µM]
Cc1ccc(NC2CNC2)cc1C(=O)N[C@H](C)c1cccc(-c2ccc(CNC(=O)C3CCCO3)s2)c1 (stereo partly drawn) [Compound 34, N-((5-(3-((R)-1-(5-(Azetidin-3-ylamino)-2-methylbenzamido)ethyl)phenyl)thiophen-2-yl)methyl)tetrahydrofuran-2-carboxamide]	0.69
Cc1ccc(NC2CNC2)cc1C(=O)N[C@H](C)c1cccc(-c2ccc(CNC(=O)C3CCNCC3)s2)c1 [Compound 35, (R)-N-((5-(3-(1-(5-(Azetidin-3-ylamino)-2-methylbenzamido)ethyl)phenyl)thiophen-2-yl)methyl)piperidine-4-carboxamide]	2.4
Cc1ccc(NC2CNC2)cc1C(=O)N[C@H](C)c1cccc(-c2ccc(CNC(=O)C3CNC3)s2)c1 [Compound 36, (R)-N-((5-(3-(1-(5-(Azetidin-3-ylamino)-2-methylbenzamido)ethyl)phenyl)thiophen-2-yl)methyl)azetidine-3-carboxamide]	1.14
Cc1ccc(NC2CNC2)cc1C(=O)N[C@H](C)c1cccc(-c2ccc(CNC(=O)C3CCC(N)C3)s2)c1 (stereo partly drawn) [Compound 37, N-((1R)-1-(3-(5-((3-Aminocyclopentane-1-carboxamido)methyl)thiophen-2-yl)phenyl)ethyl)-5-(azetidin-3-ylamino)-2-methylbenzamide]	0.96
Cc1ccc(NC2CNC2)cc1C(=O)N[C@H](C)c1cccc(-c2ccc(CNC(=O)[C@@H]3CCCN3)s2)c1 [Compound 38, (S)-N-((5-(3-((R)-1-(5-(Azetidin-3-ylamino)-2-methylbenzamido)ethyl)phenyl)thiophen-2-yl)methyl)pyrrolidine-2-carboxamide]	0.55
CCOC(=O)[C@@H]1CC[C@H](NCc2ccc(-c3cccc([C@@H](C)NC(=O)c4cc(NC5CNC5)ccc4C)c3)s2)C1 [Compound 40, Ethyl (1R,3S)-3-(((5-(3-((R)-1-(5-(Azetidin-3-ylamino)-2-methylbenzamido)ethyl)phenyl) Thiophen-2-yl)methyl)amino)cyclopentane-1-carboxylate]	0.49
Cc1ccc(OCCN)cc1C(=O)N[C@H](C)c1cccc(-c2ccc(CNC3CCCC3)s2)c1 [Compound 47, (R)-5-(2-Aminoethoxy)-N-(1-(3-(5-((cyclopentylamino)methyl)thiophen-2-yl)phenyl)ethyl)-2-methylbenzamide]	0.26
Cc1ccc(OCCN)cc1C(=O)N[C@H](C)c1cccc(-c2ccc(CN3CCCC3)s2)c1 [Compound 48, (R)-5-(2-Aminoethoxy)-2-methyl-N-(1-(3-(5-(pyrrolidin-1-ylmethyl)thiophen-2-yl)phenyl)ethyl)benzamide]	0.57
Cc1ccc(OC2CCNC2)cc1C(=O)N[C@H](C)c1cccc(-c2ccc(CN3CCCC3)s2)c1 (stereo partly drawn) [Compound 49, 2-Methyl-N-((R)-1-(3-(5-(pyrrolidin-1-ylmethyl)thiophen-2-yl)phenyl)ethyl)-5-(pyrrolidin-3-yloxy)benzamide]	1.2
CC(=O)Nc1ccc(C)c(C(=O)N[C@H](C)c2cccc(-c3ccc(CNC4CCCC4)s3)c2)c1 [Compound 50, (R)-5-Acetamido-N-(1-(3-(5-((cyclopentylamino)methyl)thiophen-2-yl)phenyl)ethyl)-2-methylbenzamide]	1.79
CC(=O)Nc1ccc(C)c(C(=O)N[C@H](C)c2cccc(-c3ccc(CN4CCCC4)s3)c2)c1 [Compound 51, (R)-5-Acetamido-2-methyl-N-(1-(3-(5-(pyrrolidin-1-ylmethyl)thiophen-2-yl)phenyl)ethyl)benzamide]	2.42
Cc1ccc(N)cc1C(=O)N[C@H](C)c1cccc(-c2ccc(CNC3CCCC3)s2)c1 [Compound 53, (R)-5-Amino-N-(1-(3-(5-((cyclopentylamino)methyl)thiophen-2-yl)phenyl)ethyl)-2-methylbenzamide]	1.39
Cc1ccc(N)cc1C(=O)N[C@H](C)c1cccc(-c2ccc(CN[C@H]3CC[C@@H](O)C3)s2)c1 [Compound 55, 5-Amino-N-((R)-1-(3-(5-((((1S,3R)-3-hydroxycyclopentyl)amino)methyl)thiophen-2-yl)phenyl)ethyl)-2-methylbenzamide]	0.6
Cc1ccc(OC2CNC2)cc1C(=O)N[C@H](C)c1cccc(-c2ccc(CNC3CCCC3)o2)c1 [Compound 56, (R)-5-(Azetidin-3-yloxy)-N-(1-(3-(5-((cyclopentylamino)methyl)furan-2-yl)phenyl)ethyl)-2-methylbenzamide]	2.82
Cc1ccc(NC2CNC2)cc1C(=O)N[C@H](C)c1cccc(-c2cccn2C)c1 [Compound 59, (R)-5-(Azetidin-3-ylamino)-2-methyl-N-(1-(3-(1-methyl-1H-pyrrol-2-yl)phenyl)ethyl)benzamide]	9.78
CC(=O)OC(C)OC(=O)N1CC(Nc2ccc(C)c(C(=O)N[C@H](C)c3cccc(-c4ccc(CNC(=O)C5CCCC5)s4)c3)c2)C1 (stereo partly drawn) [Compound 62, 1-Acetoxyethyl 3-((3-(((R)-1-(3-(5-(cyclopentanecarboxamidomethyl)thiophen-2-yl)phenyl)ethyl)carbamoyl)-4-methylphenyl)amino)azetidine-1-carboxylate]	0.6
